AlphaSeq binding of Ab-14 heavy chain variants to a spike HR2 peptide

Source: Engelhart et al. 2022 (doi:10.1038/s41597-022-01779-4), MIT Lincoln Laboratory and A-Alpha Bio; data file from the FLAb repository.

Target peptide (SARS-CoV-2 spike, HR2 region): PDVDLGDISGINAS

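The starting antibody came from a phage panning campaign against this peptide. Library AAYL49 holds single substitutions and randomly drawn double and triple substitutions in the CDRs. AlphaSeq pools MATa yeast showing the antibodies with MATalpha yeast showing the peptide. The frequency of each diploid, read from paired DNA barcodes, reflects how well the two displayed proteins bind. A regression on co-assayed BCL2-family reference pairs converts the normalised counts of each replicate to an apparent Kd. The assay was run in three technical replicates.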

The variants keep the light chain, the linker and the frameworks of Ab-14 (scFv order VH, a 15-residue (Gly4Ser)3 linker, VL).
VH: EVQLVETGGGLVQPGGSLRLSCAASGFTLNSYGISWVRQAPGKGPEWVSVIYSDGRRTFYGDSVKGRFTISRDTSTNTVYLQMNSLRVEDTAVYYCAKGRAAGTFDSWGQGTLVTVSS
VL: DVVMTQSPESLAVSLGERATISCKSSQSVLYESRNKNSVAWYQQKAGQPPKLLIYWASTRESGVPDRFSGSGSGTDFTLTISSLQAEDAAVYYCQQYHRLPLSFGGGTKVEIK

Changes read parent residue, position, new residue, counted from the first residue of the VH shown. Only single mutants are listed, position by position. Each Kd is an estimate from the mating assay, the geometric mean of the replicates in which the pair was seen; lower is stronger. "not detected" marks a missing value. The strain was present, yet no cells mated with the target were sequenced in any replicate, which points to weak or no binding. Nonspecific signal, from three strains lacking the peptide, appeared in 15% of pairings of library AAYL49, centred on 11 µM (5% of these signals below 680 nM); values are not corrected for it. Also given: how often the same scFv was detected with the empty control strains.

changes | apparent Kd | seen in | control signals
R57E | not detected | 0 of 3 | 0 of 9
R57L | not detected | 0 of 3 | 0 of 9
R57P | not detected | 0 of 3 | 2 of 9
R57F | 39 µM | 2 of 3 | 5 of 9
R57Q | not detected | 0 of 3 | 4 of 9
R57M | not detected | 0 of 3 | 1 of 9
R57Y | not detected | 0 of 3 | 2 of 9
R57S | not detected | 0 of 3 | 0 of 9
R57G | 7.3 µM | 1 of 3 | 3 of 9
R57I | 4.0 µM | 2 of 3 | 3 of 9
R57N | 130 nM | 1 of 3 | 1 of 9
R57C | not detected | 0 of 3 | 3 of 9
R57D | not detected | 0 of 3 | 1 of 9
R57H | 48 µM | 2 of 3 | 1 of 9
T58D | 210 nM | 3 of 3 | 0 of 9
T58S | 72 nM | 3 of 3 | 3 of 9
T58I | 42 nM | 3 of 3 | 3 of 9
T58H | 180 nM | 3 of 3 | 3 of 9
T58N | 110 nM | 3 of 3 | 3 of 9
T58M | 110 nM | 3 of 3 | 5 of 9
T58R | 47 nM | 3 of 3 | 3 of 9
T58Y | 530 nM | 2 of 3 | 0 of 9
T58L | 320 nM | 3 of 3 | 0 of 9
T58P | 150 µM | 1 of 3 | 3 of 9
T58Q | 19 nM | 3 of 3 | 2 of 9
T58A | 6.5 nM | 3 of 3 | 0 of 9
T58W | not detected | 0 of 3 | 0 of 9
T58C | 29 nM | 3 of 3 | 0 of 9
T58E | 1.2 µM | 3 of 3 | 2 of 9
T58F | not detected | 0 of 3 | 0 of 9
T58G | 150 nM | 1 of 3 | 0 of 9
T58V | not detected | 0 of 3 | 0 of 9
F59N | 44 nM | 3 of 3 | 4 of 9
F59C | 330 nM | 3 of 3 | 2 of 9
F59E | 26 nM | 3 of 3 | 3 of 9
F59W | 28 nM | 3 of 3 | 4 of 9
F59T | 86 nM | 3 of 3 | 3 of 9
F59M | 51 nM | 3 of 3 | 4 of 9
F59R | 1.5 µM | 3 of 3 | 3 of 9
F59K | 710 nM | 3 of 3 | 3 of 9
F59P | 500 µM | 2 of 3 | 5 of 9
F59Y | 27 nM | 3 of 3 | 4 of 9
F59H | 14 nM | 3 of 3 | 2 of 9
F59A | 4.2 nM | 3 of 3 | 0 of 9
F59L | 1.3 µM | 3 of 3 | 3 of 9
F59Q | 14 nM | 3 of 3 | 2 of 9
F59G | 50 nM | 3 of 3 | 0 of 9
F59I | not detected | 0 of 3 | 3 of 9
F59S | 4.3 nM | 3 of 3 | 0 of 9
Y60F | 140 nM | 3 of 3 | 1 of 9
Y60Q | not detected | 0 of 3 | 3 of 9
Y60K | 5.4 µM | 1 of 3 | 0 of 9
Y60N | 4.9 µM | 1 of 3 | 1 of 9
Y60D | 12 µM | 2 of 3 | 0 of 9
Y60G | 2.2 µM | 1 of 3 | 0 of 9
Y60V | not detected | 0 of 3 | 0 of 9
Y60M | 460 nM | 3 of 3 | 0 of 9
Y60A | 3.1 µM | 3 of 3 | 3 of 9
Y60W | not detected | 0 of 3 | 0 of 9
Y60L | 860 nM | 3 of 3 | 7 of 9
Y60P | 62 µM | 2 of 3 | 3 of 9
Y60C | 630 nM | 3 of 3 | 2 of 9
Y60I | 88 nM | 3 of 3 | 0 of 9
Y60H | 280 nM | 3 of 3 | 0 of 9
Y60E | not detected | 0 of 3 | 3 of 9
Y60S | 700 nM | 3 of 3 | 2 of 9
G61Q | 11 nM | 3 of 3 | 2 of 9
G61F | not detected | 0 of 3 | 2 of 9
G61K | 61 nM | 3 of 3 | 2 of 9
G61L | 110 nM | 3 of 3 | 0 of 9
G61Y | not detected | 0 of 3 | 1 of 9
G61V | 7.5 nM | 3 of 3 | 1 of 9
G61M | 29 nM | 3 of 3 | 0 of 9
G61W | 26 µM | 2 of 3 | 4 of 9
G61R | 5.4 nM | 3 of 3 | 0 of 9
G61I | 5.8 nM | 3 of 3 | 0 of 9
G61P | 47 nM | 3 of 3 | 4 of 9
G61A | 3.3 nM | 3 of 3 | 0 of 9
G61E | 2.8 nM | 3 of 3 | 2 of 9
G61S | 3.9 nM | 3 of 3 | 3 of 9

Extract of 11 entries:

| changes | apparent Kd | seen in | control signals |
|---|---|---|---|
| F59G | 50 nM | 3 of 3 | 0 of 9 |
| G61S | 3.9 nM | 3 of 3 | 3 of 9 |
| R57G | 7.3 µM | 1 of 3 | 3 of 9 |
| T58C | 29 nM | 3 of 3 | 0 of 9 |
| F59W | 28 nM | 3 of 3 | 4 of 9 |
| Y60Q | not detected | 0 of 3 | 3 of 9 |
| R57H | 48 µM | 2 of 3 | 1 of 9 |
| R57F | 39 µM | 2 of 3 | 5 of 9 |
| Y60A | 3.1 µM | 3 of 3 | 3 of 9 |
| R57D | not detected | 0 of 3 | 1 of 9 |
| F59M | 51 nM | 3 of 3 | 4 of 9 |